Laboratory results as given in patent US12528818B2, “Compositions and methods for inhibition of RAS” (Leidos Biomedical Research, Inc., priority 2021, dated 2026).

Assays:
[1] = molecular target: GppNHp-loaded KRAS4b (amino acids 1-169) G12C/C118S protein (Homo sapiens, UniProt P01116, C118S/G12C); assay: Covalent cysteine 12 modification by MALDI-TOF MS, GppNHp-loaded KRAS G12C; format: biochemical; settings: 15 minutes reaction time, compound 95 or later using 1 μM proteins
[2] = molecular target: GDP-loaded KRAS4b (amino acids 1-169) G12C/C118S protein (Homo sapiens, UniProt P01116, C118S/G12C); assay: Covalent cysteine 12 modification by MALDI-TOF MS, GDP-loaded KRAS G12C; format: biochemical; settings: 15 minutes reaction time, compound 95 or later using 1 μM proteins
[3] = molecular target: Avi-KRAS G12C (1-169) GppNHp/RAF1 RBD-3xFLAG (52-151) (Homo sapiens, UniProt P01116, G12C); assay: biochemical; settings: Raf1-GppNHp-KRAS G12C disruption, Raf1 RBD-KRAS G12C-GppNHp disruption assay IC50
[4] = molecular target: T1, GTP-loaded KRAS4b (amino acids 1-169) G12C/C118S protein (Homo sapiens, UniProt P01116, C118S/G12C); assay: Covalent cysteine 12 modification by MALDI-TOF MS, GTP-loaded KRAS G12C; format: biochemical; settings: 15 minutes reaction time, compound 95 or later using 1 μM proteins
T1 construct: KRAS4b (amino acids 1-169) G12C/C118S protein; made in house

GppNHp-KRAS G12C percent of modification [1]	GDP-KRAS G12C percent of modification [2]	IC50 [3]	GTP-KRAS G12C percent of modification [4]	Compound
A (percent of modification ≥70%)	A (percent of modification ≥70%)	< 500 nM	C (10%≤percent of modification <50%)	C=CC(=O)N1C[C@H](C)N(c2nc(OC[C@@]34CCCN3C[C@H](F)C4)nc3c(F)c(-c4ccc(F)c5sc(N)c(C#N)c45)c(C#N)cc23)C[C@H]1C [Compound 324, 4-((2S,5R)-4-acryloyl-2,5-dimethylpiperazin-1-yl)-7-(2-amino-3-cyano-7-fluorobenzo[b]thiophen-4-yl)-8-fluoro-2-(((2R,7aS)-2-fluorotetrahydro-1H-pyrrolizin-7a(5H)-yl)methoxy)quinazoline-6-carbonitrile]
C (10%≤percent of modification <50%)	C (10%≤percent of modification <50%)	< 500 nM	D (percent of modification <10%)	C=CC(=O)N1CCC(N(CC)c2nc(OC[C@@H]3C[C@@H](F)CN3C)nc3cc(-c4ccc(F)c5sc(N)c(C#N)c45)c(C#N)cc23)[C@H]1COC (some centres unmarked) [Compound 471]
A (percent of modification ≥70%)	A (percent of modification ≥70%)	< 500 nM	A (percent of modification ≥70%)	C=CC(=O)N1CC[C@@H](N(CC)c2nc(OC[C@@]34CCCN3C[C@H](F)C4)nc3cc(-c4ccc(F)c5sc(N)c(C#N)c45)c(C#N)cc23)[C@H]1COC [Compound 439]
A (percent of modification ≥70%)	A (percent of modification ≥70%)	< 500 nM	A (percent of modification ≥70%)	C=CC(=O)N1CCC(N(C)c2nc(OC[C@@H]3C[C@@H](OC)CN3C)nc3c(F)c(-c4ccc(F)c5sc(N)c(C#N)c45)ccc23)[C@H]1C (some centres unmarked) [Compound 430]
B (50≤percent of modification <70%)	A (percent of modification ≥70%)	< 500 nM	C (10%≤percent of modification <50%)	C=CC(=O)N1CCC(N(CC)c2nc(OC[C@@]34CCCN3C[C@H](F)C4)nc3cc(-c4ccc(F)c5sc(N)c(C#N)c45)ccc23)[C@H]1COC (some centres unmarked) [Compound 440]
B (50≤percent of modification <70%)	A (percent of modification ≥70%)	< 500 nM	B (50≤percent of modification <70%)	C=CC(=O)N1C[C@@H](F)[C@@H](N(C)c2nc(OC[C@@H]3C[C@@H](OC)CN3C)nc3cc(-c4ccc(F)c5sc(N)c(C#N)c45)c(C(F)(F)F)cc23)C1 [Compound 361]
A (percent of modification ≥70%)	A (percent of modification ≥70%)	< 500 nM	A (percent of modification ≥70%)	C=CC(=O)N1CC[C@@H](N(CC)c2nc(OC[C@@]34CCCN3C[C@H](F)C4)nc3cc(-c4ccc(F)c5sc(N)c(C#N)c45)c(C(F)(F)F)cc23)C1 [Compound 352]
B (50≤percent of modification <70%)	A (percent of modification ≥70%)	< 500 nM	C (10%≤percent of modification <50%)	C=CC(=O)N1CCC(N(CC)c2nc(OC[C@@H]3CCCN3C)nc3cc(-c4ccc(F)c5sc(N)c(C#N)c45)c(C#N)cc23)[C@H]1COC (some centres unmarked) [Compound 470]
A (percent of modification ≥70%)	A (percent of modification ≥70%)	< 500 nM	A (percent of modification ≥70%)	C=CC(=O)N1CCC(N(CC)c2nc(OC[C@@]34CCCN3C[C@H](F)C4)nc3c(C#N)c(-c4ccc(F)c5sc(N)c(C#N)c45)ccc23)[C@H]1C (stereo partly drawn) [Compound 415, 4-((1-acryloyl-2-methylpyrrolidin-3-yl)(ethyl)amino)-7-(2-amino-3-cyano-7-fluorobenzo[b]thiophen-4-yl)-2-(((2R,7aS)-2-fluorotetrahydro-1H-pyrrolizin-7a(5H)-yl)methoxy)quinazoline-8-carbonitrile]
A (percent of modification ≥70%)	A (percent of modification ≥70%)	< 500 nM	A (percent of modification ≥70%)	C=CC(=O)N1C[C@H](F)[C@@H](N(C)c2nc(OC[C@@]34CCCN3C[C@H](F)C4)nc3cc(-c4ccc(F)c5sc(N)nc45)c(C(F)(F)F)cc23)C1 [Compound 335]
C (10%≤percent of modification <50%)	C (10%≤percent of modification <50%)	< 500 nM	D (percent of modification <10%)	C=CC(=O)N1CC[C@@H](N(CC)c2nc(OC[C@@]34CCCN3C[C@H](F)C4)nc3c(F)c(-c4ccc(F)c5sc(N)c(C#N)c45)c(C(F)(F)F)cc23)[C@H]1C [Compound 403]
A (percent of modification ≥70%)	A (percent of modification ≥70%)	< 500 nM	A (percent of modification ≥70%)	C=CC(=O)N1CC[C@@H](N(C)c2nc(OC[C@@]34CCCN3C[C@H](F)C4)nc3c(F)c(-c4ccc(F)c5sc(N)c(C#N)c45)ccc23)C1 [Compound 311]
C (10%≤percent of modification <50%)	B (50≤percent of modification <70%)	< 500 nM	D (percent of modification <10%)	C=CC(=O)N1C[C@H](C)N(c2nc(N3CC(N4CC(OC)C4)C3)nc3c(F)c(-c4ccc(F)c5sc(N)c(C#N)c45)c(C(F)(F)F)cc23)C[C@H]1C [Compound 331]
A (percent of modification ≥70%)	A (percent of modification ≥70%)	< 500 nM	C (10%≤percent of modification <50%)	C=CC(=O)N1C[C@H](C)N(c2nc(OC[C@@]34CCCN3C[C@H](F)C4)nc3c(F)c(-c4ccc(F)c5sc(N)nc45)c(C(F)(F)F)cc23)C[C@H]1C [Compound 202, 1-((2R,5S)-4-(7-(2-amino-7-fluorobenzo[d]thiazol-4-yl)-8-fluoro-2-(((2R,7aS)-2-fluorotetrahydro-1H-pyrrolizin-7a(5H)-yl)methoxy)-6-(trifluoromethyl)quinazolin-4-yl)-2,5-dimethylpiperazin-1-yl)prop-2-en-1-one]
A (percent of modification ≥70%)	A (percent of modification ≥70%)	< 500 nM	B (50≤percent of modification <70%)	C=CC(=O)N1C[C@H](C)N(c2nc(OC[C@@H]3CC4(CC4)CN3C)nc3c(F)c(-c4ccc(F)c5sc(N)c(C#N)c45)c(C(F)(F)F)cc23)C[C@H]1C [Compound 410, 4-(4-((2S,5R)-4-acryloyl-2,5-dimethylpiperazin-1-yl)-8-fluoro-2-(((S)-5-methyl-5-azaspiro[2.4]heptan-6-yl)methoxy)-6-(trifluoromethyl)quinazolin-7-yl)-2-amino-7-fluorobenzo[b]thiophene-3-carbonitrile]
A (percent of modification ≥70%)	A (percent of modification ≥70%)	< 500 nM	A (percent of modification ≥70%)	C=CC(=O)N1CC[C@@H](N(CC)c2nc(OC[C@@]34CCCN3C[C@H](F)C4)nc3c(F)c(-c4ccc(F)c5sc(N)c(C#N)c45)c(C(F)(F)F)cc23)C1 [Compound 348, 4-(4-(((R)-1-acryloylpyrrolidin-3-yl)(ethyl)amino)-8-fluoro-2-(((2R,7aS)-2-fluorotetrahydro-1H-pyrrolizin-7a(5H)-yl)methoxy)-6-(trifluoromethyl)quinazolin-7-yl)-2-amino-7-fluorobenzo[b]thiophene-3-carbonitrile]
A (percent of modification ≥70%)	A (percent of modification ≥70%)	< 500 nM	A (percent of modification ≥70%)	C=CC(=O)N1CCC(N(C)c2nc(OC[C@@]34CCCN3C[C@H](F)C4)nc3c(F)c(-c4ccc(F)c5sc(N)c(C#N)c45)ccc23)[C@H]1COC (some centres unmarked) [Compound 402]
